For assay [1], the target named is T1, AChE from electric eel (Electrophorus electricus, UniProt O42275).
T1 construct: assays were performed on AChE from electric eel (C3389-500UN; Sigma); purchased Sigma C3389-500UN
Kind of assay: EeAChE inhibition assay (Ellman's method). The note with it: na = no inhibitory activity at 20 µM. In kind it is biochemical. Background: DTNB colorimetry detects thiols as they appear.

By UniProt entry, the sequences of proteins in these tests, tags left out. Residues count along the entry.
UniProt O42275, 24-633: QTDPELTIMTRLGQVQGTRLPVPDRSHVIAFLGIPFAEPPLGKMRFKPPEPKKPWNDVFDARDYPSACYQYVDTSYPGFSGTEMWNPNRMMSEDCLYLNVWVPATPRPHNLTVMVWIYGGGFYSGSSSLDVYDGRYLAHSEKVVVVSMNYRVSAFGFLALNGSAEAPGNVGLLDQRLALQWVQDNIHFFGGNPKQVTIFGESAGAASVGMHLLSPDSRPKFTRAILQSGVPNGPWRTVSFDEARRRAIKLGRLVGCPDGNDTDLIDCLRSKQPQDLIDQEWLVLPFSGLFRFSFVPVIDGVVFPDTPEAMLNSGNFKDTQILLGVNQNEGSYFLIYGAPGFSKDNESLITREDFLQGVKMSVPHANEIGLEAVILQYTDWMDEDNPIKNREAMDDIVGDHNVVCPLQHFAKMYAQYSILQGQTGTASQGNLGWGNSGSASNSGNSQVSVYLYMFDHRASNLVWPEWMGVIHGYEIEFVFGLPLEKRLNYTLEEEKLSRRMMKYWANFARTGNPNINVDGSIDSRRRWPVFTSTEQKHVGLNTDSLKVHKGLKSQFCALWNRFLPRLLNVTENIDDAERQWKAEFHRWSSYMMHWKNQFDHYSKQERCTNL
UniProt P06276, 29-602: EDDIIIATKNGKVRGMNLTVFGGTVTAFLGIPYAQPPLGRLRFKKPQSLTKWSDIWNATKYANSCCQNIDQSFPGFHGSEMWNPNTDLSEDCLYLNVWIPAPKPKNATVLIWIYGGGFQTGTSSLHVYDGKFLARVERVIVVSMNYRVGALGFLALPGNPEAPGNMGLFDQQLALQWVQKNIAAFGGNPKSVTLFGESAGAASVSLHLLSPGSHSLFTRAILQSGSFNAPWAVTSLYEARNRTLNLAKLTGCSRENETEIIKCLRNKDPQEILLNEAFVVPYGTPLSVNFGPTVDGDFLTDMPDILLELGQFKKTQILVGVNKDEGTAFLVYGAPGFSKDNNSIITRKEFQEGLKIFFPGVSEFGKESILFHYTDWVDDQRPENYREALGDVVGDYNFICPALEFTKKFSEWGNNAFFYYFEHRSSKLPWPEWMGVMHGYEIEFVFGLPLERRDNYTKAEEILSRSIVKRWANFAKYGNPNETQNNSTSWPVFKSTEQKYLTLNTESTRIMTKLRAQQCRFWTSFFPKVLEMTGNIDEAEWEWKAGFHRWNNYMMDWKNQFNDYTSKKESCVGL

The target in assay [2] is T2, BuChE from human serum (hBuChE) (Homo sapiens, UniProt P06276).
T2 construct: BuChE from human serum (hBuChE); purchased Sigma B4186; host or cells: human serum
In words: hBuChE inhibition assay (Ellman's assay). In kind it is biochemical. The note with it: mean ± SEM.

Take `Cc1ccc(/C=C/C=C(\Cl)S(=O)(=O)F)cc1` [Compound B3]: the “AChE % inhibition at 20 µM” value in assay [1] was 20.6 ± 0.8%.

In the case of `CCN(C)C(=O)Oc1cccc([C@H](C)N(C)C)c1` [Rivastigmine, rivastigmine, reference compound], in assay [2], the 50% inhibitory concentration (IC50) (as a rule, the concentration that inhibits the measured activity by half) amounted to 2950 ± 460 nM.

Values taken from paper PMC8386747, “Structure–activity relationship, in vitro and in vivo evaluation of novel dienyl sulphonyl fluorides as selective BuChE inhibitors for the treatment of Alzheimer's disease” (Journal of Enzyme Inhibition and Medicinal Chemistry, 2021).
